Biological target: MDM2_(H.sapiens) SWIB domain (Homo sapiens (human))
Experiment: fluorescence polarisation; displacement: complex of MDM2 (0.2-2 μM) and FITC-p53TAD_(human)^15–26 (15 nM) displaced by increasing unlabeled p53TAD peptide or p53TAD^full-length; KD calculated from IC50 (Nikolovska-Coleska et al. 2004); 20 mM sodium phosphate pH 7.4, 150 mM NaCl, 1 mM TCEP

Kd: 290 nM
Binder: DSPDFEDLWNSIV (N-terminal acetylated) [Clupea harengus p53TADP2 p53TAD^15–27]
